Data from article PMC4585259 (Frontiers in Pharmacology, 2015).

Sequences of proteins named here, by UniProt entry; tags and fusion partners are left off.
UniProt P04775, whole entry: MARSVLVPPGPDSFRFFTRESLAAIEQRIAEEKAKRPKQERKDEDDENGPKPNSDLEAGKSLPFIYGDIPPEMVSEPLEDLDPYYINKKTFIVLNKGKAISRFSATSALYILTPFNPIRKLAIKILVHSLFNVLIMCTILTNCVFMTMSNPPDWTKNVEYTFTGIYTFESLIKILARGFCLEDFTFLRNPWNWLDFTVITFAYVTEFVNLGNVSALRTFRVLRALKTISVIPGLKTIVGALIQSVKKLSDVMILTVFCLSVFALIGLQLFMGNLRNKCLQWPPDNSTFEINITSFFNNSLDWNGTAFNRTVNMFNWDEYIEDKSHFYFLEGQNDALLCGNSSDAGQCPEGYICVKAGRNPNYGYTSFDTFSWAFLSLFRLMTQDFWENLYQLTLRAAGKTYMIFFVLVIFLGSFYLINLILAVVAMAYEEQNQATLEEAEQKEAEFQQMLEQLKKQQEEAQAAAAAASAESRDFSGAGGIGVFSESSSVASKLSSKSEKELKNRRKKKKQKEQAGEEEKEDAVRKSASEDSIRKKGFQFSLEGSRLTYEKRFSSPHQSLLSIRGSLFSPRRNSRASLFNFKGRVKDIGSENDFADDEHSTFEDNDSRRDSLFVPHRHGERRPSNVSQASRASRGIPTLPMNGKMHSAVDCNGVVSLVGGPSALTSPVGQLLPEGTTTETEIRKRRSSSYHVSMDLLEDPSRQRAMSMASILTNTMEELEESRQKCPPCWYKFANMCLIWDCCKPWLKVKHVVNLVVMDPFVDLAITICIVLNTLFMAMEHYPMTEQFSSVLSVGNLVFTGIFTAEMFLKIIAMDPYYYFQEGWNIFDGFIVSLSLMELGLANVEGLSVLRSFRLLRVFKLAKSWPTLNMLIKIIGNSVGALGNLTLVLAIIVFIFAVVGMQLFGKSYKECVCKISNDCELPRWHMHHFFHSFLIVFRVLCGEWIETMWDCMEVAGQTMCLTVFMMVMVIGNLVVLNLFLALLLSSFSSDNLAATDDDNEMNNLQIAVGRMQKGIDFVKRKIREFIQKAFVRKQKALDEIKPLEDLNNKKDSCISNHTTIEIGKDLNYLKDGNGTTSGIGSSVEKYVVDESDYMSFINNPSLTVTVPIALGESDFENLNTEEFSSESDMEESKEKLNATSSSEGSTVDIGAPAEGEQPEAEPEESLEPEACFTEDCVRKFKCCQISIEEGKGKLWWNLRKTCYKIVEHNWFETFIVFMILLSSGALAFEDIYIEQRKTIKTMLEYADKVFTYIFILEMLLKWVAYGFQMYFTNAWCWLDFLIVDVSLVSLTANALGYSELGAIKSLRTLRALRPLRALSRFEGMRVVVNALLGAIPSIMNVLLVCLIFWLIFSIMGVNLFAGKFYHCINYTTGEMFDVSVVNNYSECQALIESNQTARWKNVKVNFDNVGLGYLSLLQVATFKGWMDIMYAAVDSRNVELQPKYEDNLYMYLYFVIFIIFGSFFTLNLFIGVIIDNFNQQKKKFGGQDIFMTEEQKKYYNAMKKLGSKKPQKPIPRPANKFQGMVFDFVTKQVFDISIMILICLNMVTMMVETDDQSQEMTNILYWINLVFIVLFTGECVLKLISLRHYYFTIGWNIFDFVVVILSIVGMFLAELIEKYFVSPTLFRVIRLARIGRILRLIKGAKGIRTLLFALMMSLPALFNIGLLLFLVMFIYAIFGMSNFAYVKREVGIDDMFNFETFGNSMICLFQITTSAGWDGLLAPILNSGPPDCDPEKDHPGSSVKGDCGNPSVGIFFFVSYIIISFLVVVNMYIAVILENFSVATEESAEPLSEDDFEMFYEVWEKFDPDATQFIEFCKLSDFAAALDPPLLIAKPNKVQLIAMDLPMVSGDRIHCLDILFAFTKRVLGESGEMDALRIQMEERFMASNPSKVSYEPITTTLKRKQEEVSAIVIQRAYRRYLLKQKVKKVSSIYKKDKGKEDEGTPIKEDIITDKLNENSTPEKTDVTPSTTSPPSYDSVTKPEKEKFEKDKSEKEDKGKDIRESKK

Molecular target: rNav1.2 sodium channels (Rattus norvegicus, UniProt P04775)
Assay: QPatch automated patch clamp, inhibition of sodium currents evoked by 5 Hz trains at three extracellular pH values
Settings: for τoffset / τonset: concentration (lidocaine 300 μM, memantine 30 μM)

With `CN[C@H]1CC[C@@H](c2ccc(Cl)c(Cl)c2)c2ccccc21` [sertraline] the “class of pH-dependence pattern (cluster analysis)” value (Ward's method on 18 variables of affinity, reversibility, onset) was “Class C”, the alkalization-induced recovery (neutral-to-alkalic solution exchange, in words) was “prominent alkalization-induced recovery” and the “reversibility at all three pH values” (pH 6.0, 7.3 and 8.6) was “below 0.6”. The “Ratio Reversibility” value (pH 6.0/7.3, cc 30 mM) was 2.494, the “Ratio Tau Offset” value (pH 6.0/7.3, cc 30 mM) was 1.158 and the “Ratio Tau Onset” value (pH 6.0/7.3, cc 30 mM) was 0.915. The “log Ratio App Aff” value (pH 6.0/7.3, cc 30 mM) was 0.351, the “Ratio Reversibility” value (pH 6.0/8.6, cc 30 mM) was 7.539 and the “Ratio Tau Offset” value (pH 6.0/8.6, cc 30 mM) was 0.947. The “Ratio Tau Onset” value (pH 6.0/8.6, cc 30 mM) was 1.117, the “log Ratio App Aff” value (pH 6.0/8.6, cc 30 mM) was 0.920 and the τoffset (pH 6.0) was 32.20 s. The τonset (pH 6.0) was 17.20 s, the “Ratio Reversibility” value (pH 7.3/8.6, cc 30 mM) was 3.023 and the “Ratio Tau Offset” value (pH 7.3/8.6, cc 30 mM) was 0.818. For the same compound, the “Ratio Tau Onset” value (pH 7.3/8.6, cc 30 mM) was 1.221, the “log Ratio App Aff” value (pH 7.3/8.6, cc 30 mM) was 0.569 and the τoffset (pH 7.3) was 27.80 s. For the same compound, the τonset (pH 7.3) was 18.80 s, the τoffset (pH 8.6) was 34.00 s and the τonset (pH 8.6) was 15.40 s. For the same compound, the Reversibility (pH=6.0, cc 30 mM) was 0.57, the Reversibility (pH=7.3, cc 30 mM) was 0.23 and the Reversibility (pH=8.6, cc 30 mM) was 0.0755.

`Nc1nc2ccc(OC(F)(F)F)cc2s1` [riluzole] gave a Kd (Apparent Affinity, pH=6.0, cc 30 mM) of 97.9 µM, a Kd (Apparent Affinity, pH=7.3, cc 30 mM) of 80.3 µM and a Kd (Apparent Affinity, pH=8.6, cc 30 mM) of 68.4 µM. For the same compound, the Kd (apparent affinity, pH 6.0, single concentration (lidocaine 300 μM, memantine 30 μM), geometric mean of 5) was 97.9 µM, the Kd (apparent affinity, pH 7.3, single concentration (lidocaine 300 μM, memantine 30 μM), geometric mean of 5) was 80.3 µM and the Kd (apparent affinity, pH 8.6, single concentration (lidocaine 300 μM, memantine 30 μM), geometric mean of 5) was 68.4 µM.
